Values quoted from earlier work, collected in PMC10383573, “New Imadazopyrazines with CDK9 Inhibitory Activity as Anticancer and Antiviral: Synthesis, In Silico, and In Vitro Evaluation Approaches” (Pharmaceuticals, 2023).
pIC50: −log10 of the molar value.

By UniProt entry, the sequences of proteins in these tests, tags left out.
UniProt P50750, whole entry: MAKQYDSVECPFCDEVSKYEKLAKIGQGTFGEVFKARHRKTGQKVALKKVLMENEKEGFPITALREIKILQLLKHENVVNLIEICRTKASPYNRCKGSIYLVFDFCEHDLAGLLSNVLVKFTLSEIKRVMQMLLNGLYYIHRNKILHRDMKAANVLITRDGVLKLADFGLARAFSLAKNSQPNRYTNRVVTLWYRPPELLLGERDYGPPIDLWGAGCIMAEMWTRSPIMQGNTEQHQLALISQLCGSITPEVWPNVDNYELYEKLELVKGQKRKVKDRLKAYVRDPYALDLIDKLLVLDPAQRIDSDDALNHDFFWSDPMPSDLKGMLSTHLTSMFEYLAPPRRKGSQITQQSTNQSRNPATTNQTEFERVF

Molecular target: CDK9 (Homo sapiens, UniProt P50750)
Parameters: purchased BPS Biosciences (San Diego, CA)
Settings: cited from earlier work

Oc1ccc(-c2nc3cnccn3c2NCCc2ccccc2)cc1O [Compound 1]
pIC50: 5.10
